Values of other authors, collected in PubChem BioAssay AID1811.
Blank lines part the entries; values can stand above or below the molecule they belong to.

Tests used:
Assay in all cases: PubChem AID 1811
[1] = target: 1H61 A; settings: PDB complex binding affinities from literature; Kd when reported
[2] = target: hiv-1 protease (hiv-1 pr); settings: PDB complex binding affinities from literature; Ki when reported
[3] = target: isocitrate dehydrogenase; settings: PDB complex binding affinities from literature; Ki when reported
[4] = target: beta-galactosidase; settings: PDB complex binding affinities from literature; Ki when reported
[5] = target: neocarzinostatin; settings: PDB complex binding affinities from literature; Kd when reported
[6] = target: peroxisome proliferator activated receptor gamm; settings: PDB complex binding affinities from literature; IC50 when reported
[7] = target: peroxisome proliferator activated receptor alph; settings: PDB complex binding affinities from literature; IC50 when reported
[8] = target: deoxyuridine 5'-triphosphate nucleotidohydrolase; settings: PDB complex binding affinities from literature; Ki when reported
[9] = target: FK506 binding protein; settings: PDB complex binding affinities from literature; Ki when reported
[10] = target: mannose-binding protein-c; settings: PDB complex binding affinities from literature; Ki when reported
[11] = target: 5'-deoxy-5'-methylthioadenosine phosphorylase; settings: PDB complex binding affinities from literature; Ki when reported
[12] = target: mta/sah nucleosidase; settings: PDB complex binding affinities from literature; Ki when reported
[13] = target: uracil phosphoribosyltransferase; settings: PDB complex binding affinities from literature; Kd when reported
[14] = target: osmoprotection protein (prox); settings: PDB complex binding affinities from literature; Kd when reported
[15] = target: inhibitor of apoptosis protein 3; settings: PDB complex binding affinities from literature; Kd when reported
[16] = target: cation-dependent mannose-6-phosphate receptor; settings: PDB complex binding affinities from literature; Kd when reported
[17] = target: cation-independent mannose 6-phosphate receptor; settings: PDB complex binding affinities from literature; Kd when reported
[18] = target: chloramphenicol acetyltransferase iii; settings: PDB complex binding affinities from literature; Ki when reported
[19] = target: 2-enoyl-coa hydratase; settings: PDB complex binding affinities from literature; Ki when reported
[20] = target: cathepsin g; settings: PDB complex binding affinities from literature; IC50 when reported
[21] = target: secretase beta; settings: PDB complex binding affinities from literature; Ki when reported
[22] = target: baculoviral iap repeat-containing protein 7; settings: PDB complex binding affinities from literature; Ki when reported
[23] = target: phosphonoacetaldehyde hydrolase; settings: PDB complex binding affinities from literature; Ki when reported
[24] = target: serum albumin; settings: PDB complex binding affinities from literature; Kd when reported
[25] = target: trp rna-binding attenuation protein; settings: PDB complex binding affinities from literature; Kd when reported
[26] = target: fatty acid-binding protein; settings: PDB complex binding affinities from literature; Kd when reported
[27] = target: thrombin; settings: PDB complex binding affinities from literature; Ki when reported
[28] = target: oxygen-insensitive nad(p)h nitroreductase; settings: PDB complex binding affinities from literature; Ki when reported
[29] = target: camp-specific phosphodiesterase 4d; settings: PDB complex binding affinities from literature; IC50 when reported
[30] = target: odorant-binding protein; settings: PDB complex binding affinities from literature; Kd when reported
[31] = target: major urinary protein; settings: PDB complex binding affinities from literature; Kd when reported
[32] = target: 5(3)-deoxyribonucleotidase; settings: PDB complex binding affinities from literature; Ki when reported
[33] = target: nuclear receptor ror-beta; settings: PDB complex binding affinities from literature; Ki when reported
[34] = target: coagulation factor xa; settings: PDB complex binding affinities from literature; Ki when reported
[35] = target: proline-trna synthetase; settings: PDB complex binding affinities from literature; Ki when reported
[36] = target: fk506 binding protein (fkbp); settings: PDB complex binding affinities from literature; Kd when reported
[37] = target: metalloproteinase; settings: PDB complex binding affinities from literature; Ki when reported

Structure (SMILES): C[C@]12C=CC(=O)C=C1CC[C@@H]1[C@@H]2C(=O)C[C@@]2(C)[C@H]1CC[C@]2(O)[C@@H](O)C=O
Kd [1]: 13 µM

Structure (SMILES): O=C(O)C[C@H](C(=O)O)[C@@H](O)C(=O)O
Ki [3]: 189 µM

Structure (SMILES): CC(C)S[C@@H]1O[C@H](CO)[C@H](O)[C@H](O)[C@H]1O
Ki [4]: 590 µM

Structure (SMILES): CN[C@H]1[C@@H](O[C@@H]2/C3=C/C#C[C@H]4O[C@@]4([C@H]4COC(=O)O4)C#CC3=C[C@H]2OC(=O)c2c(O)ccc3c(C)cc(OC)cc23)O[C@H](C)[C@H](O)[C@@H]1O
Kd [5]: 0.0001 µM

Structure (SMILES): CC(=O)N[C@@H]1[C@@H](O)[C@H](O)[C@@H](CO)O[C@@H]1O
Ki [10]: 14400 µM

Structure (SMILES): C[N+]1(C)CCC[C@H]1C(=O)O
Kd [14]: 0.05 µM

Structure (SMILES): CC[C@H](C)[C@H](NC(=O)[C@@H]1CCCN1C(=O)[C@@H](NC(=O)[C@H](C)N)C(C)C)C(=O)N[C@@H](C)C(=O)N[C@@H](CCC(N)=O)C(=O)N[C@@H](CCCCN)C(=O)N[C@@H](CO)C(=O)N[C@@H](CCC(=O)O)C(=O)O
Kd [15]: 0.43 µM

Structure (SMILES): O=P(O)(O)OC[C@H]1O[C@H](O)[C@@H](O)[C@@H](O)[C@@H]1O
Kd [16]: 8 µM
Kd [17]: 0.001 µM

Structure (SMILES): CC(=O)O[C@H]1C[C@@]2(C)[C@@H](C[C@@H](O)[C@H]3[C@@]4(C)CC[C@@H](O)[C@@H](C)[C@@H]4CC[C@@]32C)/C1=C(\CCC=C(C)C)C(=O)O
Ki [18]: 5.4 µM

Structure (SMILES): CC(=O)CC(=O)SCCNC(=O)CCNC(=O)[C@H](O)C(C)(C)COP(=O)(O)OP(=O)(O)OC[C@H]1O[C@@H](n2cnc3c(N)ncnc32)[C@H](O)[C@@H]1OP(=O)(O)O
Ki [19]: 1.6 µM

Structure (SMILES): CC[C@H](C)[C@H](NC(=O)[C@@H]1CCCN1C(=O)[C@@H](NC(=O)[C@H](C)N)C(C)C)C(=O)O
Ki [22]: 0.5 µM

Structure (SMILES): C=CS(=O)(=O)O
Ki [23]: 1790 µM

Structure (SMILES): CCCCC/C=C\C/C=C\C/C=C\C/C=C\CCCC(=O)O
Kd [24]: 0.091 µM
Kd [25]: 4.4 µM

The remaining lines, values ahead:

Ki [2]: < 0.001 µM
Structure (SMILES): CC[C@H](C)[C@H](NC(=O)[C@H](C(C)C)[C@@H](O)[C@H](O)[C@H](CC1CCCCC1)NC(=O)[C@H](Cc1cnc[nH]1)NC(=O)COc1cccc2ccccc12)C(=O)NCc1ccccn1

IC50 [6]: 0.2 µM
IC50 [7]: 1 µM
Structure (SMILES): CCO[C@@H](Cc1ccc(OCCc2ccc(OS(C)(=O)=O)cc2)cc1)C(=O)O

Ki [8]: 15 µM
Structure (SMILES): O=c1ccn([C@H]2C[C@H](O)[C@@H](COP(=O)(O)OP(=O)(O)O)O2)c(=O)[nH]1

Ki [9]: 0.019 µM
Structure (SMILES): COc1cc(C(F)(F)C(=O)N2CCCC[C@H]2C(=O)O[C@@H](CCCc2ccccc2)CCCc2cccnc2)cc(OC)c1OC

Ki [11]: 0.001 µM
Ki [12]: 0.077 nM
Structure (SMILES): CSC[C@H]1N[C@@H](c2c[nH]c3c(N)ncnc23)[C@H](O)[C@@H]1O

Kd [13]: 465 µM
Structure (SMILES): Nc1nc2c(ncn2[C@@H]2O[C@H](COP(=O)(O)OP(=O)(O)OP(=O)(O)O)[C@@H](O)C2O)c(=O)[nH]1 (some centres not stated)

IC50 [20]: 4.1 µM
Structure (SMILES): O=C(c1ccc2ccccc2c1)[C@@H](c1cccc2ccccc12)P(=O)(O)O

Ki [21]: 0.0016 µM
Structure (SMILES): CC(C)C[C@H](NC(=O)[C@H](CC(N)=O)NC(=O)[C@@H](NC(=O)[C@@H](N)CCC(=O)O)C(C)C)[C@@H](O)C[C@@H](C)C(=O)N[C@@H](C)C(=O)N[C@@H](CCC(=O)O)C(=O)N[C@@H](Cc1ccccc1)C(=O)O

Kd [26]: 0.0534 µM
Structure (SMILES): CC/C=C\C/C=C\C/C=C\C/C=C\C/C=C\C/C=C\CCC(=O)O

Ki [27]: 11 µM
Structure (SMILES): N=C(N)c1ccc2nc(-c3cccc(-c4ccccc4)c3O)[nH]c2c1

Ki [28]: 100 µM
Structure (SMILES): O=C(O)c1ccccc1

IC50 [29]: 0.16 µM
Structure (SMILES): COc1cc(-c2ccc(=O)[nH]n2)ccc1OC(F)F

Kd [30]: 0.8 µM
Kd [31]: 0.3 µM
Structure (SMILES): COc1nccnc1CC(C)C

Ki [32]: 70 µM
Structure (SMILES): Cc1cn([C@H]2C[C@H]3O[C@](c4ccccc4)(P(=O)(O)O)OC[C@H]3O2)c(=O)[nH]c1=O

Ki [33]: 0.16 µM
Structure (SMILES): CC(/C=C/C=C(\C)c1cc(C(C)(C)C)cc(C(C)(C)C)c1)=C\C(=O)O

Ki [34]: 0.041 µM
Structure (SMILES): CC(=N)N1CC[C@H](Oc2ccc([C@H](Cc3ccc4ccc(C(=N)N)cc4c3)C(=O)O)cc2)C1

Ki [35]: 0.05 µM
Structure (SMILES): Nc1ncnc2c1ncn2[C@@H]1O[C@H](COS(=O)(=O)NC(=O)[C@@H]2CCCN2)[C@@H](O)[C@H]1O

Kd [36]: 1 µM
Structure (SMILES): CCC(C)(C)C(=O)C(=O)N1CCC[C@H]1C(=O)OCCCc1cccnc1

Ki [37]: 169 µM
Structure (SMILES): NC(=O)CC[C@H](NC(=O)[C@@H]1CCC(=O)N1)C(=O)N[C@@H](Cc1c[nH]c2ccccc12)C(=O)O
